Reference: patent US7160890B2, “Compounds specific to adenosine A3 receptor and uses thereof” (OSI Pharmaceuticals, Inc., priority 1999, dated 2007)

By UniProt entry, the sequences of proteins in these tests, tags left out.
UniProt P30542, whole entry: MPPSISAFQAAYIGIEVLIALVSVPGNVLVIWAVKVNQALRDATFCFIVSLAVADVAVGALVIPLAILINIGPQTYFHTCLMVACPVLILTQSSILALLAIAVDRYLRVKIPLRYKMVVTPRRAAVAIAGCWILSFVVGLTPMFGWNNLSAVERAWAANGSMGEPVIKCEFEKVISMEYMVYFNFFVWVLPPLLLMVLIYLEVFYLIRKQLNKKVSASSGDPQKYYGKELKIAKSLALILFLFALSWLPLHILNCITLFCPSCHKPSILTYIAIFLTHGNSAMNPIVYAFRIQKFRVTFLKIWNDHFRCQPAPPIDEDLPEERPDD

Target: human A1 adenosine receptor (Homo sapiens, UniProt P30542)
Assay: fus1-LacZ β-galactosidase assay in yeast expressing human A1 adenosine receptor
Assay type: cell-based
Set-up: yeast alpha-factor (Mfα1) prepro leader (N, cleaved yes); expressed in transfected cells; host or cells: Saccharomyces cerevisiae (strain CY12660 or related strains carrying plasmid p5095)
Conditions: NECA concentration of 10^−8 M

CCNC(=O)[C@H]1O[C@@H](n2cnc3c(N)ncnc32)[C@H](O)[C@@H]1O [NECA, 5′-N-ethylcarboxamidoadenosine]
stimulation of β-galactosidase activity: approximately 2 fold
